Laboratory results published in patent US9545416B2, “Combination therapy using ribavirin as eIF4E inhibitor” (Universite de Montreal, priority 2011, dated 2017).
Several values for one entry are separate records, joined by “and”; a condition that tells them apart may be missing. Identical values can stand only once.

Amino acid sequences for entries named in this document (tags omitted).
UniProt P06730, whole entry: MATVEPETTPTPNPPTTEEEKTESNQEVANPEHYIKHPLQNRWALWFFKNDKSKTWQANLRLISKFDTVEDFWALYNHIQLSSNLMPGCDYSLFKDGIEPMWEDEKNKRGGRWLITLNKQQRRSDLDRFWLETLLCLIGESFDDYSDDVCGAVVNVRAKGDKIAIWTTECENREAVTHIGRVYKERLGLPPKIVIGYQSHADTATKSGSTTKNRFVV

Experiments:
eIF4E = target: T1, eIF4E (Homo sapiens, UniProt P06730); assay: Immunoprecipitation of labelled (3H/14C) ribavirin with eIF4E in living cells; type: binding
T1 construct: ^14C ribavirin is enriched in the eIF4E immunoprecipitated fraction by about 20 fold relative to the IgG control; endogenous in cells; host or cells: parental FaDu, F10R and F100R resistant cells
Text: NMR, fluorescence, and mass spectrometry studies indicate that ribavirin directly binds eIF4E. ^3H ribavirin binds to eIF4E in living cells as shown by the 14-fold enrichment of ^3H ribavirin in eIF4E immunoprecipitations relative to controls. […] Ribavirin sensitivity parallels eIF4E sensitivity and inhibits both the nuclear and cytoplasmic functions of eIF4E. Importantly, ribavirin affects primary AML specimens with elevated eIF4E more than specimens with normal eIF4E levels. In total, it appears that these AML specimens have developed an “oncogene addiction” to eIF4E making them more sensitive to inhibition of eIF4E than specimens with normal eIF4E levels. The clinical utility of ribavirin treatment in M4/M5 AML patients was investigated.
It was determined whether ^14C-ribavirin could immunoprecipitate with eIF4E in the F10R and F100R resistant cell lines. […]
It was hypothesized that glucuronidation of ribavirin impairs its association with eIF4E. The ability of eIF4E to immunopreciptate with ^14C-ribavirin in conditions that varied in Gli-1 and UGT activity was monitored to determine if reversion of resistance correlated with re-association of ribavirin with eIF4E. Cells were treated for 24 hours with ^14C-ribavirin followed by cross-linking and immunoprecipitation and evaluated relative to IgG controls.

F10R cells = assay: Cell number / growth assay, F10R resistant cells; type: cell-based; details: 10 μM ribavirin
Method: (FIG. 6). Gli-1 knockdown experiments were performed in parallel.

Gli-1 mRNA = Gli-1 mRNA levels in patient specimens (qRT-PCR); type: in vivo, human; details: 6 responding patients with specimens at relapse
Text: Gli-1 mRNA levels were monitored in patients before, during, and after response in patients receiving ribavirin monotherapy. To date, the non-responding patients before treatment had over 20 fold elevated ribavirin levels. These levels were not reduced during ribavirin treatment, indeed for one case that there is available data, the Gli-1 levels nearly doubled. For responding patients, in all cases Gli-1 mRNA levels were higher at resistance than during response. In some cases, ribavirin levels started high in the before treatment sample and then were reduced (for instance, patient 17 had 20× Gli-mRNA before treatment, 5.8 during blast response and 26× at relapse), whereas in other cases, Gli-1 mRNA levels started low and then became elevated at relapse (for instance, patient 10 had 1.3× Gli-1 mRNA before treatment relative to normal, 1.6× during response and 3.6× at relapse).
The molecular features identified in present studies were examined to determine whether they were relevant to specimens from patients that received ribavirin monotherapy in the multi-centre phase II AML trial. For responding patients, all available specimens before treatment were monitored, during clinical response, upon the onset of relapse and in non-responders when possible. […] Gli-1 mRNA levels were monitored using qRT-PCR. […]

ENT1 = ENT1 RNA levels in patients (RT-qPCR); type: in vivo, human; details: Patient 11 (CR), after 9 cycles of treatment
ADK = ADK RNA levels in patients (RT-qPCR); type: in vivo, human; details: Patient 11 (CR), after 9 cycles of treatment
[1] = system: relapsed/refractory M4/M5 AML; details: monotherapy, all patients

## NC(=O)c1ncn([C@@H]2O[C@H](CO)[C@@H](O)[C@H]2O)n1 [ribavirin, 1-[(2R,3R,4S,5R)-3,4-dihydroxy-5-(hydroxymethyl)oxolan-2-yl]-1H-1,2,4-triazole-3-carboxamide]
eIF4E; living cells
  enrichment of 3H ribavirin in eIF4E immunoprecipitations relative to controls: 14 fold
eIF4E; parental cell lines
  enrichment of 14C ribavirin in the eIF4E immunoprecipitated fraction relative to the IgG control: about 20 fold
F10R cells
  growth relative to untreated F10R cells: did not effect growth
Gli-1 mRNA
  Gli-1 mRNA levels upon resistance relative to normal controls or levels during response: up to 26 fold
ENT1
  reduction in ENT1 RNA levels at relapse relative to during response: 20 fold and 15 fold
ADK
  reduction in ADK RNA levels at relapse relative to during response: 5 fold
[1]
  drug related toxicity: No drug related toxicity was observed
